Consider 6 molecules from patent US6916822B2, “Phenoxyalkylamine derivatives useful as opioid δ receptor agonists” (Meiji Seika Kaisha, Ltd., priority 2000, dated 2005).

This assay concerns the target T1, opioid δ receptor (Rattus norvegicus, UniProt P33533).
T1 construct: A membrane fraction of opioid δ receptor was prepared from the rat forebrain; from tissue; host or cells: rat forebrain membrane fraction
In words: Binding affinity for opioid δ receptor ([3H]-Naltrindole binding experiment). The following applies: membrane fraction from rat forebrain; [3H]-Naltrindole 1 nM; 25° C., 90 minutes; Ki calculated from IC50 by Cheng-Prusoff equation.

Take `O=C(c1ccc(Cc2ccccc2OCCN2CCC(n3c(=O)[nH]c4ccccc43)CC2)cc1)N1CCCC1` [Example 15, 4-(1,3-Dihydro-2H-benzimidazol-2-on-1-yl)-1-[2-[2-(4-pyrrolidinocarbonyl-benzyl)phenoxy]ethyl]piperidine]: the inhibition constant (Ki) (usually a dissociation constant, usually derived from enzyme kinetics or from competition with a known ligand) was 281 nM.

Regarding `CC(C)N(C(=O)c1ccc(Cc2ccccc2OCCN2CCC3(CC2)C(=O)NCN3c2ccccc2)cc1)C(C)C` [Example 32, 8-[2-[2-(4-Diisopropylcarbamoylbenzyl)phenoxy]ethyl]-1-phenyl-1,3,8-triazaspiro[4,5]decan-4-one], the Ki is 517 nM.

As to `CCN(CC)C(=O)c1ccc(Cc2ccccc2OCCN2CCC3(CC2)C(=O)N(C)CN3c2ccccc2)cc1` [Example 36, 8-[2-[2-(4-Diethylcarbamoylbenzyl)phenoxy]ethyl]-3-methyl-1-phenyl-1,3,8-triazaspiro[4,5]decan-4-one], the Ki is 240 nM.

Consider `CCN(CC)C(=O)c1ccc(Cc2ccccc2OCCN2CCC(C(C)=O)(c3ccccc3)CC2)cc1` [Example 49, 4-Acetyl-1-[2-[2-(4-diethylcarbamoylbenzyl)phenoxy]ethyl]-4-phenylpiperidine], for which the Ki was 943 nM.

For `CC(C)COC(=O)c1ccc(Cc2ccccc2OCCN2CCC(n3c(CO)nc4ccccc43)CC2)cc1` [Example 103, 1-[2-[2-(4-Isobutyloxycarbonylbenzyl)phenoxy]ethyl]-4-(2-hydroxymethyl-1H-benzimidazol-1-yl)piperidine], the Ki is 73 nM.

As for `CCC(C)C(=O)c1ccc(Cc2ccccc2OCCN2CCC(n3c(CO)nc4ccccc43)CC2)cc1` (stereo not drawn) [Example 110, 4-(2-Hydroxymethyl-1H-benzimidazol-1-yl)-1-[2-[2-[4-(2-methylbutyryl)benzyl]phenoxy]ethyl]piperidine], the Ki is 88 nM.
